Values quoted from earlier work as cited in PMC8780580, “The Neuroactive Steroid Pregnanolone Glutamate: Anticonvulsant Effect, Metabolites and Its Effect on Neurosteroid Levels in Developing Rat Brains” (Pharmaceuticals, 2021).

Key:
[1] = within 0.5 min of uptake; cited from earlier work
[2] = parameters: method as in PMID 9408083; settings: peripherally applied; cited from earlier work

Substance: pregnenolone sulfate [Pregnenolone sulfate (PE-S)]
- desulfation [1]: > 50%
- penetration across the BBB into the brain, slower compared with unconjugated counterpart [2]: about 10 times
